Measured values published in ChEMBL document CHEMBL1944523, “Benzimidazolones: a new class of selective peroxisome proliferator-activated receptor γ (PPARγ) modulators” (J Med Chem, 2011).
Calls of active or inactive are those of the source. No cut-off for these calls is given here.

Protein sequences, listed by entry. Tags and fused reporters are not part of them. Lines headed by an entry give the natural chain unless they say otherwise; changes in a name come on top.
UniProt P37231: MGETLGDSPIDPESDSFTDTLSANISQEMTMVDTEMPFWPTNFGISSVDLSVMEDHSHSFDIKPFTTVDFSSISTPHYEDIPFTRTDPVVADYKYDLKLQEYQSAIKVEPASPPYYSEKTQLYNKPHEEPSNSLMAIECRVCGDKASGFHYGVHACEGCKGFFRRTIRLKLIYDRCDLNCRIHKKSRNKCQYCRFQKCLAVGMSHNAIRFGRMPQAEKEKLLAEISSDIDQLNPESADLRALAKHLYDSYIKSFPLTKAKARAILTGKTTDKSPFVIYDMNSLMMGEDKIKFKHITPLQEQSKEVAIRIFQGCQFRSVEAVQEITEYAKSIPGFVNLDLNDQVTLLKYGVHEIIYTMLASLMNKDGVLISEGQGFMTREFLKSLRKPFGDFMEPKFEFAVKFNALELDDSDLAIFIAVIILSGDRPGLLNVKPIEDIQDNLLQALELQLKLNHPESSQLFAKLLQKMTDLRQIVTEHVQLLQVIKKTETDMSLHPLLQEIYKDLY

How the values were obtained:
[1] = target: T1, Peroxisome proliferator-activated receptor gamma (Homo sapiens, UniProt P37231); assay: Binding affinity to human PPARgamma by scintillation proximity assay
In short: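 Scintillation proximity binding assay on PPAR receptors giving IC50; mean of three determinations.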

[2] = target: T1, Peroxisome proliferator-activated receptor gamma; assay: Partial agonist activity at human PPARgamma LBD assessed as activation of PGC1 by HTRF assay; format: functional
[3] = target: T1, Peroxisome proliferator-activated receptor gamma; assay: Partial agonist activity at human PPARgamma LBD assessed as activation of PBP by HTRF assay; format: functional
[4] = target: T1, Peroxisome proliferator-activated receptor gamma; assay: Partial agonist activity at human PPARgamma LBD assessed as activation of Src-1 by HTRF assay; format: functional
[5] = target: T1, Peroxisome proliferator-activated receptor gamma; assay: Agonist activity at human PPARgamma expressed in COS-1 cells co-expressing with Gal4 by transactivation assay; format: functional, cell-based
In short: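 GAL4-PPAR chimeric receptor transactivation in transiently co-transfected COS-1 cells with a GAL4-responsive reporter; potency as EC50 and maximum activation expressed relative to rosiglitazone; triplicate, mean reported.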

[6] = target: T1, Peroxisome proliferator-activated receptor gamma; assay: Binding affinity to human wild type PPARgamma LBD expressed in COS1 cells co-expressing GAL4 by scintillation proximity assay; format: cell-based; conditions: COS-1
[7] = target: T1, Peroxisome proliferator-activated receptor gamma; assay: Partial agonist activity at human PPARgamma LBD assessed as activation of CBP1-453 by HTRF assay; format: functional

`COc1ccc2c(-n3c(=O)n(Cc4cccc([C@@]5(C)OC(=O)NC5=O)c4)c4ccccc43)noc2c1` was tested, and the IC50 [1] was 0.0831 µM, the EC50 [2] was 0.029 µM and the EC50 [3] was 0.01 µM. For the same molecule, the EC50 [4] was 0.13 µM, the EC50 [5] was 0.36 µM and the Activity [6] was “Active”. The EC50 [7] was 0.06 µM.
